Values of other authors as cited in patent US6428805B1, “Powdery nasal compositions” (Teijin Limited, priority 1998, dated 2002).

## insulin
10 units of insulin, nasal, rabbits
  maximum blood concentration relative to injection administration of the same unit: about 20%
10 units of insulin, nasal, rabbits, Example 4 of JP Kokoku 62-42888
  maximum blood concentration: ≤ 200 μU/ml
Nasal versus injection, estimated
  absorption ratio determined from AUC: ≤ 10%
